# System: memory CD8+ T cells
# Type: cell-based, human
row,Sequence,% of Pts (Tetramer)
1,LLYDANYFL [compound 3],55.5%

# System: memory CD8+ T cells
# Type: cell-based, human
# Remark: another data set of the same source
Sequence,# of patients enriching epitope >1.5 (moderate stringency),# of patients enriching epitope >5 (high stringency),A01-01-01-030,A01-01-02-019,A0101_01-01-003,A0101_01-01-007,A0101_01-01-009,reactivity to control epitope in the screen,A03_01-01-006,A03_01-01-008
ACTDDNALAY,5,1,6.71,4.08,4.00,1.55,3.23,–,–,–
NLVPMVATV [reference compound],–,–,–,–,–,–,–,detected,–,–
QLPQGTTLPK,2,0,–,–,–,–,–,–,1.16,1.57
IPRRNVATLQ,1,0,–,–,–,–,–,–,–,–
EIPRRNVATL,1,0,–,–,–,–,–,–,–,–
CVADYSVLY,5,3,–,–,–,–,–,–,7.82,5.13
TACTDDNALAYY,5,1,6.71,4.08,4.00,1.55,3.23,–,–,–
KCYGVSPTK,5,3,–,–,–,–,–,–,12.94,9.24
ACTDDNALAYY,5,1,6.71,4.08,4.00,1.55,3.23,–,–,–
STFKCYGVSPTK,5,3,–,–,–,–,–,–,12.94,9.24
QIAPGQTGK,4,3,–,–,–,–,–,–,5.98,5.07

# Same assay, conditions: not given
Sequence,A03_01-02-002,A03_01-02-004,A03_01-02-010,"enrichment of epitope in T-Scan screen, patient B07_01-01-022","enrichment of epitope in T-Scan screen, patient B0702_01-01-021","enrichment of epitope in T-Scan screen, patient B0702_01-01-030","enrichment of epitope in T-Scan screen, patient B0702_01-02-002","enrichment of epitope in T-Scan screen, patient B0702_01-02-004",% of Pts (Screen)
QLPQGTTLPK,1.14,1.96,1.35,–,–,–,–,–,–
IPRRNVATLQ,–,–,–,0.13,0.56,1.30,3.83,0.86,–
EIPRRNVATL,–,–,–,0.13,0.52,1.26,3.56,0.80,–
LLLDRLNQL [compound 5],–,–,–,–,–,–,–,–,33.3%
DTDFVNEFY [compound 13],–,–,–,–,–,–,–,–,40%
ATSRTLSYYK [compound 23],–,–,–,–,–,–,–,–,60%
CVADYSVLY,7.38,1.67,2.03,–,–,–,–,–,–
KCYGVSPTK,12.60,2.17,3.05,–,–,–,–,–,–
STFKCYGVSPTK,12.60,2.17,3.05,–,–,–,–,–,–
QIAPGQTGK,7.06,1.46,1.78,–,–,–,–,–,–
